Test: Redox potential of Os mediator
Type: physicochemical
Source text: It has fast mediation kinetics (about 500 times faster than ferricyanide with glucose oxidase) and a relatively low redox potential (+150 mV vs. Ag/AgCl). It has also very fast electron transfer rate at electrode surface. More importantly, the organic ligands on Os mediator can be functionalized so that it can be covalently linked to other molecules without detrimental effects on redox properties of the Os center. These unique properties of Os mediator make it an ideal electrochemical indicator for sensors based on immunoaffinity.

Bis(2,2′-bipyridyl) imidazolyl chloroosmium [Os mediator]
Redox potential: +150 mV vs. Ag/AgCl

Source: patent publication USRE40198E1, “Method and device for electrochemical immunoassay of multiple analytes” (Roche Diagnostics Operations, Inc., priority 1998, dated 2008)
